In patent US20220233492A1, “METHOD OF PREVENTING OR TREATING POSTOPERATIVE PAIN” (priority 2019, published 2022):

Tested on: postoperative pain, subjects for an open elective abdominoplasty
Assay: Example 2: IV infusion started before anesthesia induction vs placebo, open elective abdominoplasty
Assay type: in vivo, human
Conditions: FIG. 11

CCCCOc1c(OC)cc(C(=O)NCC2(N(C)C)CCOCC2)cc1OC [VVZ-149, 4-butoxy-N-((4-(dimethylamino)tetrahydro-2H-pyran-4-yl)methyl)-3,5-dimethoxybenzamide]
amount of intraoperative fentanyl used during surgery vs placebo: less amount of intraoperative fentanyl
